Assay results reported in ChEMBL document CHEMBL3817815, “Impact of Binding Site Comparisons on Medicinal Chemistry and Rational Molecular Design” (J Med Chem, 2016).

The chains behind the UniProt entries cited, without tags or fusion partners.
UniProt P23219, whole entry: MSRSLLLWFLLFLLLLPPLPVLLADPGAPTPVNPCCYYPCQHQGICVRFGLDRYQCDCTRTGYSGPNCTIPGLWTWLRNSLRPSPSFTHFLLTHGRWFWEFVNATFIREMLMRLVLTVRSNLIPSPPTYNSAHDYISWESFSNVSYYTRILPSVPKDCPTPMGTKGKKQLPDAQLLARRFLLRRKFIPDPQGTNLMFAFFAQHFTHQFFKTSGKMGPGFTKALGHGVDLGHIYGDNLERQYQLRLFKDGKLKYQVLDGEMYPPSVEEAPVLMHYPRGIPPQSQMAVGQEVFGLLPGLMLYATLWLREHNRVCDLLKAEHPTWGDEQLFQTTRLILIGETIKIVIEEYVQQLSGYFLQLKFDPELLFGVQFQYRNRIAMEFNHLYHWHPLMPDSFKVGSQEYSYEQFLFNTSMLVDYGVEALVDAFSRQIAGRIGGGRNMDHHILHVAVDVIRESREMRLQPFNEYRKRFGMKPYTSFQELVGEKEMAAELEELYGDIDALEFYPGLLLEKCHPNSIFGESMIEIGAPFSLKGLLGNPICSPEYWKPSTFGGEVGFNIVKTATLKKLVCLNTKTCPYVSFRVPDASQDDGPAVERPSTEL

Biological target: Prostaglandin G/H synthase 1 (Homo sapiens, UniProt P23219)
Assay: Inhibition of human recombinant COX1 expressed in Sf9 cell microsomes assessed as reduction in conversion of arachidonic acid to PGE2 at 250 uM incubated for 5 mins by HTRF assay

inhibition: 48%
Structure (SMILES): CC(C)(Oc1ccc(C(=O)c2ccc(Cl)cc2)cc1)C(=O)O
